Apparent affinities of Ab-14 variants for a coronavirus HR2 peptide

Binding partner: SARS-CoV-2 spike HR2 peptide, sequence PDVDLGDISGINAS.

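Phage display of a naive human antibody library on the peptide gave the parent. The variants were designed computationally from a first round of random CDR variants and then made and measured. Their group label is 14H_En_Gibbs (En: ensemble of fine-tuned language models; Gibbs: Gibbs sampling). AlphaSeq pools MATa yeast showing the antibodies with MATalpha yeast showing the peptide. After mating in shaken culture at 30 °C for 16 h, diploids were selected and their barcode pairs sequenced. Scores were corrected for input abundance and mapped to Kd with protein pairs of known affinity run in the same pool. Each pool was mated in six replicate cultures.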

Parent scFv Ab-14: VH joined to VL by the linker GGGGSGGGGSGGGGS. Changes lie in the heavy chain CDRs alone.
VH: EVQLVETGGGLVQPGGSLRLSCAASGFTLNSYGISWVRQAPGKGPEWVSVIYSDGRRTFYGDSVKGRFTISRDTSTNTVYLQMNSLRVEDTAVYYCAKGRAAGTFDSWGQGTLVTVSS
VL: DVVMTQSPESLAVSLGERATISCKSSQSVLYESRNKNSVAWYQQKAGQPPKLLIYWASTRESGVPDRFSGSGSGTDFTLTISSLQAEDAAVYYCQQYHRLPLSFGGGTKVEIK

Each variant is given by its three heavy chain CDRs, as the data file delimits them; those of the parent are GFTLNSYGIS, VIYSDGRRTFYGDSVK, GRAAGTFDS. Values are log10 of the apparent Kd in nM; lower means stronger binding. An entry "nd" has no value in the source: the pair was not observed among the diploids in that replicate. This suggests poor binding but is not conclusive. The authors averaged sequences with at least three values out of six and counted those with two or fewer as poor binders.

CDR-H1	CDR-H2	CDR-H3	log10 Kd (nM) by replicate	control signals
GFDIQEYGIS	VIYADGNRSAYIDAVK	GDTGSSFLE	nd nd nd nd nd nd	0 of 18
GPSLDEYGIS	VIYADGVRQYYADDVK	GQIGNFVNY	nd nd nd nd nd nd	0 of 18
GFNLDEYGIS	VIYADGYRRAYAQSVK	GYNSSTGVT	nd nd nd nd 2.43 nd	1 of 18 (2.25)
GADLNEYGIS	VIYADGDRIAAQNDVK	GTNAGDFDI	nd nd nd nd nd nd	0 of 18
GFDLDEMGIS	VIYADGVRTAYVDQVK	GMGGTFMNV	nd nd nd nd nd nd	0 of 18
GFQLEEYGIS	VIYADGTRTMYLPTVK	GVNGGTFQM	nd nd nd nd nd nd	0 of 18
GFNLDEYGIS	VIYADGQRTQYANDVK	GGYNGSMLS	nd nd nd nd nd nd	0 of 18
GFALNEYGIS	VIYADGIRSVYANKVK	GNQAGTLLI	nd nd nd nd nd nd	0 of 18
GFNLDEYGIS	VIYADGTRTNYLDTVK	GVTGGTFIQ	nd nd nd nd nd nd	0 of 18
GFDLNEQGIS	VIYADGRRRATINQVK	GSNSFTFDL	nd nd nd nd nd nd	0 of 18
EFDLNEYGVS	VIYADGHRTFYADHVK	GQEAGVFFD	nd nd nd 1.99 2.03 nd	0 of 18
GFDLNEYGVS	VIYADGSRASYADKVK	GLNFGQLIV	nd nd nd nd nd nd	0 of 18
GFQLDEFGIS	VIYADGKRSSYVDDVK	GETTGIFKV	nd nd nd nd nd nd	0 of 18
GFDLQEYGIS	VIYADGHRTAYIQKVK	GQIAGGQFD	nd nd nd 3.87 nd nd	1 of 18 (1.57)
GFDLEKYGIS	VIYADGIRKVYDQSVK	GQMAGTFTV	1.02 1.35 0.22 0.68 0.71 0.38	0 of 18
GGDIQEYGIS	VIYADGQRAYYSDAVK	GNIGAIFSD	nd nd nd nd nd nd	0 of 18
GFDLMEYGIS	VIYADGKRTGYTDKVK	GMFGDTGKT	nd nd nd nd nd nd	0 of 18
GFDLEEYGIS	VIYADGVRTSYVDQVK	GESGGAYYT	nd nd nd nd nd nd	0 of 18
GFNIDEYGIS	VIYADGDRMSYDNAVK	GQISGHFDM	nd nd nd nd nd nd	0 of 18
GENLEEYGIS	VIYADGMREQYSDSVK	GRQGGFFVV	nd nd nd nd nd nd	1 of 18 (3.32)
GFDLNEYGIS	VIYADGKKTAFVNTVK	GELGGNIDD	0.68 nd nd nd nd nd	0 of 18
GFDFNEYGIS	VIYADGKRTAYADKFK	GGKNAFTDI	nd nd nd nd nd 2.20	0 of 18
GFDINEMGIS	VIYADGQRLFYADEVK	GENTGSFDM	nd nd nd nd nd nd	0 of 18
GFNINEYGIS	VIYADGVRTHYVDDVK	GKHTGVKMD	nd nd nd nd 2.91 nd	0 of 18
GYNIDEYGIS	VIYADGQRTAYQNSVK	GEQAGIMMY	nd nd nd nd nd nd	0 of 18
GFDLEDYGIS	VIYADGVRTAYSQNSK	GINGVALYI	nd nd nd nd nd nd	0 of 18
GKEIEEYGIS	VIYADGMRQAYAESVK	GQVAGTGKF	nd nd nd nd nd nd	0 of 18
GFNLDEYGIS	VIYADGNRVFYADTVK	GLLGILYVV	nd nd nd nd nd nd	0 of 18
GDNINEYGIS	VIYADGLRRQYAENVK	GYLAGTLDE	2.20 nd nd 2.52 2.44 1.80	1 of 18 (2.02)
GFNLEEYGIS	VIYADGMRSEYADNVK	GHKGNTFQD	nd nd nd nd nd nd	0 of 18
GDGLSEYGIS	VIYADGMRTSYDDSVK	GALAGTFDE	nd nd nd nd nd nd	0 of 18
GFDLQEYGIS	VIYADGVRYAYQNSFK	GQIAGTINS	nd nd nd nd nd nd	0 of 18
GFSLNEYGIS	VIYADGTRTAYADDVK	GAYDTVAVL	nd 2.72 nd nd nd nd	0 of 18
GQSLDDYGIS	VIYADGQRKAYVDEVK	GEVAGTFDI	0.11 -0.42 -0.15 -0.57 -0.24 0.15	0 of 18
GFDLDEYGIS	VIYADGTRKMYAPTFK	GNHGGTFLM	nd nd nd nd nd nd	0 of 18
GADINEYGIS	VIYADGLSTYYANSFK	GHNAGTFNM	nd nd nd nd nd nd	0 of 18
DFNLNEYGIS	VIYADGVRASVRDKVK	GQISGTFDT	nd nd nd nd nd nd	0 of 18
GADLNEYGIS	VIYADGQRTVYADTVK	GHHGGIFDM	nd nd 2.91 nd 2.91 nd	1 of 18 (2.84)
GFDLNEYGIS	VIYADGHRSFFIDTVK	GQQAGIFNV	nd nd nd nd nd nd	0 of 18
GFSLDEFGIS	VIYADGKRTFYTDNVK	GINVVALVI	nd nd nd nd nd nd	0 of 18
GFDINEYGIS	VIYADGNRTMYQDQVK	GGNAGSFVI	nd nd nd nd nd nd	0 of 18
GFNLEEYGIS	VIYADGTRTAYLDTVK	GVTGGTFIM	nd nd nd nd nd nd	0 of 18
GFDLKQYGIS	VIYADGMRAGYADNVK	GHWGGKFLV	nd nd nd nd nd nd	0 of 18
GGDIQDYGIS	VIYADGQRAAYADEVK	GNIGGIFST	nd nd nd nd nd nd	0 of 18
GFDLNEYGVS	VIYADGKRTFYADHVK	GVNAGGFDT	nd nd nd nd nd nd	0 of 18
GFDVEEYGIS	VIYADGRRSSYSQSVK	GEYSGTIYV	nd nd nd nd nd nd	0 of 18
GFGLDEYGIS	VIYADGQRKSYTDDVK	GSYTNKKGI	nd nd nd nd nd nd	0 of 18
GNDINEYGIS	VIYADGMRTAYLNDVK	GQMAGLFIM	nd nd nd nd nd nd	0 of 18
GFSLDEYGVS	VIYADGMRTQYTPNVK	GQTGFDYGL	nd nd nd nd nd nd	0 of 18

The opening 8 entries, copied out:

CDR-H1	CDR-H2	CDR-H3	log10 Kd (nM) by replicate	control signals
GFDIQEYGIS	VIYADGNRSAYIDAVK	GDTGSSFLE	nd nd nd nd nd nd	0 of 18
GPSLDEYGIS	VIYADGVRQYYADDVK	GQIGNFVNY	nd nd nd nd nd nd	0 of 18
GFNLDEYGIS	VIYADGYRRAYAQSVK	GYNSSTGVT	nd nd nd nd 2.43 nd	1 of 18 (2.25)
GADLNEYGIS	VIYADGDRIAAQNDVK	GTNAGDFDI	nd nd nd nd nd nd	0 of 18
GFDLDEMGIS	VIYADGVRTAYVDQVK	GMGGTFMNV	nd nd nd nd nd nd	0 of 18
GFQLEEYGIS	VIYADGTRTMYLPTVK	GVNGGTFQM	nd nd nd nd nd nd	0 of 18
GFNLDEYGIS	VIYADGQRTQYANDVK	GGYNGSMLS	nd nd nd nd nd nd	0 of 18
GFALNEYGIS	VIYADGIRSVYANKVK	GNQAGTLLI	nd nd nd nd nd nd	0 of 18

Empty control strains, which show no peptide, gave a signal in 1% of pairings with all heavy chain designs; the median was 2.08 and 95% of these signals were weaker than 0.84. No background was subtracted. The control count says in how many pairings with the empty strains this scFv gave a signal, with their mean in brackets. A sequence measured in both rounds can read differently, since the two assays cover different ranges.

Data: MIT Lincoln Laboratory AlphaSeq set, Li et al. 2023, doi:10.1038/s41467-023-39022-2, as distributed in FLAb.